Results published in US20160008366A1 (published 2016).

Test: Quantification of PCI-32765 and PCI-45227 in human plasma from subject 01-001BF (LC-MS/MS)
Type: in vivo
Conditions: patient 01-001BF, ibrutinib 560 mg daily

Calculated Concentration in plasma (1 Month, 3 h): 204 ng/mL | Calculated Concentration in plasma (Day 1, 2 h): 499 ng/mL | Calculated Concentration in plasma (Day 1, pre-dose (0 h), BQL = below quantification limit (1 ng/mL)): BQL | Calculated Concentration in plasma (Day 1, pre-dose (0 h), BQL = below quantification limit (1 ng/mL), listed as Ibrutinib): BQL^b
SMILES: C=CC(=O)N1CCC[C@@H](n2nc(-c3ccc(Oc4ccccc4)cc3)c3c(N)ncnc32)C1 [PCI-32765, (R)-1-(3-(4-amino-3-(4-phenoxyphenyl)-1H-pyrazolo[3,4-d]pyrimidin-1-yl)piperidin-1-yl)prop-2-en-1-one]
